The nature of this series: Binding to phosphatidylcholine-coated silica beads (TRANSIL Intestinal Absorption Kit). Particulars: compared with the physiologically active substance alone taken as 1. The method, then:
In the evaluation herein, the binding of substances to silica beads coated with a phospholipid (phosphatidylcholine) was compared. A higher binding indicates a higher cell membrane transport and a higher intestinal absorption.
An aqueous phase was prepared and the pH was adjusted with a pH adjuster to a pH value of 6. The aqueous phase and an oil phase were heated to 50 to 60° C. The aqueous phase was added to the oil phase. The mixture was stirred with a homogenizer (HG-200, As One Corporation) at a high speed of 10,000 rpm for 10 minutes to give an emulsion.
The affinity with phosphatidylcholine-coated silica beads (TRANSIL Intestinal Absorption Kit, SOVICELL GMBH) was assessed. […] The fluorescence intensity of the supernatant was measured with a spectrophotometer (Hitachi F-2700, excitation wavelength: 494 nm, fluorescence wavelength: 521 nm).
A volume of 200 μl of PBS containing the beads was added to each tube, and 20 μl of each of the compositions was added. […] The absorbance of the oil red solution in methanol was measured at 510 nm with an ultraviolet spectrophotometer (Shimadzu UV-1200). The relative amount of the pigment of Example 14 or Comparative Example 4 bound to the beads was calculated, with the obtained value of an oil red solution (Comparative Example 5) taken as 1. […]
The calculated value was expressed by the symbols A, B and C. […]

Catechin: the “Relative amount of physiologically active substance bound to the beads, Example (sophorolipid)” value (substance emulsified with sophorolipid) was “B (affinity of not less than 2.0-fold and less than 5.0-fold)”. Moreover, where the note is “substance emulsified with sucrose fatty acid ester”, the “Relative amount of physiologically active substance bound to the beads, Comparative Example (sucrose fatty acid ester)” value is listed as “C (affinity of less than 2.0-fold)”.

For the origin of these results see patent publication US10307466B2, “Composition comprising sophorolipid, physiologically active substance and oil or fat, and method for producing the same” (SARAYA CO., LTD., priority 2014, dated 2019).
